Measured values as given in ChEMBL document CHEMBL4033767, “Structure-Guided Strategy for the Development of Potent Bivalent ERK Inhibitors” (ACS Med Chem Lett, 2017).

Amino acid sequences for entries named in this document (tags omitted).
UniProt P28482, whole entry: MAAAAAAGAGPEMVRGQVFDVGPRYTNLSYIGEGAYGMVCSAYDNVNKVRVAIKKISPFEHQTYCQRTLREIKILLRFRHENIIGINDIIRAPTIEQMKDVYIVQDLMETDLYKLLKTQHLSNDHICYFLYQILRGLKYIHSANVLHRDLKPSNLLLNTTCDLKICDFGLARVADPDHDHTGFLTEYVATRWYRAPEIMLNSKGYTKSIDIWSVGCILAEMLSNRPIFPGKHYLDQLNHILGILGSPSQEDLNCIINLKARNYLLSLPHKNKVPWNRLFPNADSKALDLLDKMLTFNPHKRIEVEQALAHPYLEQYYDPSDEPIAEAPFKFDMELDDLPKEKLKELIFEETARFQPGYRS

Target: Mitogen-activated protein kinase 1 (Homo sapiens, UniProt P28482)
Assay: Inhibition of phosphorylated ERK2 (unknown origin) using myelin basic protein as substrate after 2 hrs in presence of ATP by ADP-glo assay

IC50: 1.2 µM
SMILES: Nc1n[nH]c2nnc(-c3c(-c4ccccc4)nn4ccccc34)cc12
